Chains of the proteins cited; added tags and fusions are not shown.
UniProt Q01827, whole entry V132G: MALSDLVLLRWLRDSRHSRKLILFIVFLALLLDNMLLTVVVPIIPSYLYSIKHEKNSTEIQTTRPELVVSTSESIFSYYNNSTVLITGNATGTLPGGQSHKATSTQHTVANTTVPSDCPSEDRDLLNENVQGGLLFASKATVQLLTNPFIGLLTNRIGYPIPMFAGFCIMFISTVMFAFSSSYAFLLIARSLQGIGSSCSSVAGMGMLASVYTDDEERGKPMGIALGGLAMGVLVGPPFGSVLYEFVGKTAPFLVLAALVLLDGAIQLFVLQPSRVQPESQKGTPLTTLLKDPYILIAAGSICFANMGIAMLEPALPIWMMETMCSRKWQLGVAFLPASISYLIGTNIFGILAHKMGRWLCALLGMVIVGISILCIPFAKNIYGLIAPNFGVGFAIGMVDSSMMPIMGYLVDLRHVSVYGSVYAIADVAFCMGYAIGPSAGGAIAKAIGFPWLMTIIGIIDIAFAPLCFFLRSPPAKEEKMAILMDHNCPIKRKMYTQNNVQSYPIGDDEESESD
UniProt Q01827, whole entry P314T: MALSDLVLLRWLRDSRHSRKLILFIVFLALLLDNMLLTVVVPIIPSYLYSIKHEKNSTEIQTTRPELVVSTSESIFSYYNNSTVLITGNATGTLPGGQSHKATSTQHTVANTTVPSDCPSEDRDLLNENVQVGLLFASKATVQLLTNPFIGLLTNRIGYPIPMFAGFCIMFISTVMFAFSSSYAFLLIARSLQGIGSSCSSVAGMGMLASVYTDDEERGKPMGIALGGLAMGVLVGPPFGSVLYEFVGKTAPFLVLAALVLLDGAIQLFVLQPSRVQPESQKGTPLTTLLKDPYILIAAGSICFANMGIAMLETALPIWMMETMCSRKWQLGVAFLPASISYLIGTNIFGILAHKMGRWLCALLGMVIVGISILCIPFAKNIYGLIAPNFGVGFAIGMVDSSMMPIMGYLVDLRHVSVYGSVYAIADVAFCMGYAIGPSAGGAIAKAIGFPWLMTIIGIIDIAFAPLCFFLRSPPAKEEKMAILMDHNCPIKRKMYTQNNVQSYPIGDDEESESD
UniProt Q01827, whole entry G308A: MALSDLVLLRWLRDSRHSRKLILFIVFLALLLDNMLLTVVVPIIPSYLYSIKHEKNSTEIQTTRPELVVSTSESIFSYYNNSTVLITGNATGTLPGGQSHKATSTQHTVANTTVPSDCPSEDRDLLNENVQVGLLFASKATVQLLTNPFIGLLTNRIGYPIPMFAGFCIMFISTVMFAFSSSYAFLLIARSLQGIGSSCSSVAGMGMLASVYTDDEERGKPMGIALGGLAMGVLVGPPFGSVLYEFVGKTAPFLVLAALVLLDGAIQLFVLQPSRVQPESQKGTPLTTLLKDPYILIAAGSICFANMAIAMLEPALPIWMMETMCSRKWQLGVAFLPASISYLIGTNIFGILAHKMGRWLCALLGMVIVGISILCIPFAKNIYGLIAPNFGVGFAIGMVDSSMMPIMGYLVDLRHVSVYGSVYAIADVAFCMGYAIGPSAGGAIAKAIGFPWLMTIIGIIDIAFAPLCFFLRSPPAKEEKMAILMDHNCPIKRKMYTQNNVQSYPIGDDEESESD
UniProt Q01827, whole entry G308P: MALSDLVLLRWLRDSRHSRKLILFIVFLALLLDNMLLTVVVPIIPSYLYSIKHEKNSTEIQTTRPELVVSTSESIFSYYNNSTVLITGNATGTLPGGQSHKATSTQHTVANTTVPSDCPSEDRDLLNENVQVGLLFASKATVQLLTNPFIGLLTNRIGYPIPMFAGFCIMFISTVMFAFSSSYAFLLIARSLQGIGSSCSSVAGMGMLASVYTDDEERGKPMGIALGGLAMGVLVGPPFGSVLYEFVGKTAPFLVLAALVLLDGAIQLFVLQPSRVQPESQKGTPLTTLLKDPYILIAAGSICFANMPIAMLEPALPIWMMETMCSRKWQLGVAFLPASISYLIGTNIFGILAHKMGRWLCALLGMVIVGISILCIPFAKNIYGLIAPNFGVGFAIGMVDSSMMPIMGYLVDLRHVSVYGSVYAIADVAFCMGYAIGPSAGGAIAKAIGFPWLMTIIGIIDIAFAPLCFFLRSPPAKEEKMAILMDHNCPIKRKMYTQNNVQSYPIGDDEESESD
UniProt Q01827, whole entry V132A: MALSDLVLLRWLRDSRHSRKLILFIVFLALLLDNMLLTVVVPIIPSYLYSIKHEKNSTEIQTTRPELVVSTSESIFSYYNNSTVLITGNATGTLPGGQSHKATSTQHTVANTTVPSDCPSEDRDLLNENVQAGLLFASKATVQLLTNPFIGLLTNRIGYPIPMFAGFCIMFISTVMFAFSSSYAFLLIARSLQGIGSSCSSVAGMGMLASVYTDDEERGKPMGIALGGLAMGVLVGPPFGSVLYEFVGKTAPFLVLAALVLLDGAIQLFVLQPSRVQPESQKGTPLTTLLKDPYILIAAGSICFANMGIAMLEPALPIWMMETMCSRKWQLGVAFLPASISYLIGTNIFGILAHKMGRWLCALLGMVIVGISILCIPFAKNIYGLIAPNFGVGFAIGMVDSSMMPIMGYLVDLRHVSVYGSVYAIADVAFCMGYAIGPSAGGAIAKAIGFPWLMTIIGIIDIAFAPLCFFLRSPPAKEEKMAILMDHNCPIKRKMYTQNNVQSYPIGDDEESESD
UniProt Q01827, whole entry V41F: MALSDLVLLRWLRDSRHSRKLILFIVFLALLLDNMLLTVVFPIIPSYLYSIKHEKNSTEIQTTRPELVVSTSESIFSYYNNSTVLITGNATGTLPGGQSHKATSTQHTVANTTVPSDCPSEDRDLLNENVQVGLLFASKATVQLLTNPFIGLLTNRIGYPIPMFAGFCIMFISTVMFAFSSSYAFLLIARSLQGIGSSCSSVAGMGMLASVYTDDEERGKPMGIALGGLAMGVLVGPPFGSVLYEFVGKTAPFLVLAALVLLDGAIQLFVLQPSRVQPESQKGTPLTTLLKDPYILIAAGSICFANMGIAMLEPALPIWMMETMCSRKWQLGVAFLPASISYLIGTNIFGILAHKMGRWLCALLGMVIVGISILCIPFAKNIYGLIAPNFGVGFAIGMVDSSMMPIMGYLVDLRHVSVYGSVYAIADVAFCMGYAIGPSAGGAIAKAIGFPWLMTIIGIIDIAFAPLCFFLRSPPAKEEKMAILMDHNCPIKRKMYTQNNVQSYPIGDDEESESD
UniProt Q01827, whole entry V41A: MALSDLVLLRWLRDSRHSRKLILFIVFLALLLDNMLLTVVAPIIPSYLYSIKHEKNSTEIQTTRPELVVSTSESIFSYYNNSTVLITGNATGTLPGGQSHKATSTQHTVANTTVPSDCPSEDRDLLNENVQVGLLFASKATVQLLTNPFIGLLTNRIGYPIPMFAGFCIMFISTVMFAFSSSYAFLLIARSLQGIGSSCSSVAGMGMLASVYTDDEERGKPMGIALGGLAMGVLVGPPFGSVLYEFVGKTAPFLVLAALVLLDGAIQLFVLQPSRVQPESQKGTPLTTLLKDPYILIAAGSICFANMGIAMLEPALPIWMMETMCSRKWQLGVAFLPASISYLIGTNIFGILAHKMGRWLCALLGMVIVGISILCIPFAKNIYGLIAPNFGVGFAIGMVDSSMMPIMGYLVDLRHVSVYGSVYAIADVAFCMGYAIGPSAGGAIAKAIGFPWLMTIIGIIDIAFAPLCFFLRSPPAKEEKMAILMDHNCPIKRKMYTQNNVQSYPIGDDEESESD
UniProt Q01827, whole entry P314G: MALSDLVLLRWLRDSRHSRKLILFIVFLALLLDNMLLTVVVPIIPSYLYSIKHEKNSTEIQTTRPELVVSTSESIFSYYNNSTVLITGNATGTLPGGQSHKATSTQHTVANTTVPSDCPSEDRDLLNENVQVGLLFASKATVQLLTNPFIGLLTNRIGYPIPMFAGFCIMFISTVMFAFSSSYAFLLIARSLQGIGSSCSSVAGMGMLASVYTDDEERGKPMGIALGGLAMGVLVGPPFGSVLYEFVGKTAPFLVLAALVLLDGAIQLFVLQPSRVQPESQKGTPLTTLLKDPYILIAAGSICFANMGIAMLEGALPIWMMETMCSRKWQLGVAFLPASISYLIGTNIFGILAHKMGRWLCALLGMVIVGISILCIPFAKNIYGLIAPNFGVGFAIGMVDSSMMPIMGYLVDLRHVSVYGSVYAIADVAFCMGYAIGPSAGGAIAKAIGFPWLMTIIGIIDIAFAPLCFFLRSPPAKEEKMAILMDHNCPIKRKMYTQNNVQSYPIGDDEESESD
UniProt Q01827, whole entry P314L: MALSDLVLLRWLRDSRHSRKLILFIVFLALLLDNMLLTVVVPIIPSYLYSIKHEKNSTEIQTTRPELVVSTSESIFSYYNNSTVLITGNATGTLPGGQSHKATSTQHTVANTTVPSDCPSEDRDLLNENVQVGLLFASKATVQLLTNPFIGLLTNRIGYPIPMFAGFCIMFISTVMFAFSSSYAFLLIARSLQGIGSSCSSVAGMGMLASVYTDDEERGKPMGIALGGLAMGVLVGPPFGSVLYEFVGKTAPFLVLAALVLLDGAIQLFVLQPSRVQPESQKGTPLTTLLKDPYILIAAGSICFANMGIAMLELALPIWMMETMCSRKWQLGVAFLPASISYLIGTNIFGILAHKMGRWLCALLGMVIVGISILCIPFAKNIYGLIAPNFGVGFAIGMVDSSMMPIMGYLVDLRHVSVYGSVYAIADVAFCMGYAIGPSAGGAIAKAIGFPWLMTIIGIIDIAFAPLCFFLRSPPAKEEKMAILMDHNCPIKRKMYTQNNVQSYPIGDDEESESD
UniProt Q01827, whole entry: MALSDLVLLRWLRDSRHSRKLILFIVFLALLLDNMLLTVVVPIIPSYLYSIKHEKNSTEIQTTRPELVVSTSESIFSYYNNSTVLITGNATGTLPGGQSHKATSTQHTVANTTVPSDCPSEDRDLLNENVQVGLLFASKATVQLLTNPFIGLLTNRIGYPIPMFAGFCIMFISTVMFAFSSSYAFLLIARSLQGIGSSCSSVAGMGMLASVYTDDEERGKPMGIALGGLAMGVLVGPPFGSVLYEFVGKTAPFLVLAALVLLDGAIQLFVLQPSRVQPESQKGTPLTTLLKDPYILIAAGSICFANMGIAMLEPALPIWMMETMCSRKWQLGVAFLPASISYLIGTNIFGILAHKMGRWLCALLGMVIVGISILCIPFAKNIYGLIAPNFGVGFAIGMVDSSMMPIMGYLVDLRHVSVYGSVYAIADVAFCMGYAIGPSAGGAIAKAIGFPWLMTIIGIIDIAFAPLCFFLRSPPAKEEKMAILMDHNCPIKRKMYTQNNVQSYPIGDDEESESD
UniProt Q01827, whole entry V41I: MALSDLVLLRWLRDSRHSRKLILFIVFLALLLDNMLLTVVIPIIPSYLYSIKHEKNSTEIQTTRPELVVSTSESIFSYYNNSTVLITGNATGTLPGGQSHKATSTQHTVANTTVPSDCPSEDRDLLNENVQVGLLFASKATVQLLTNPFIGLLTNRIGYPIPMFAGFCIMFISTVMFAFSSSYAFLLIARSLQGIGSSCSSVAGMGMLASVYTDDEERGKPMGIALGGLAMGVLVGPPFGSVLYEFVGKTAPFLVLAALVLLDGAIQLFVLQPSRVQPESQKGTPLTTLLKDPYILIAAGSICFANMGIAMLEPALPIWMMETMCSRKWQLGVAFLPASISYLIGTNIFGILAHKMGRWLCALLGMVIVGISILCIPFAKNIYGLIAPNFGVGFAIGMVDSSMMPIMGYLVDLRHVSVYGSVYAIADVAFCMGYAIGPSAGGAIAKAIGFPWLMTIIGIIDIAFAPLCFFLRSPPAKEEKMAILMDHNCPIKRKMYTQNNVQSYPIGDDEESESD

According to BindingDB's records for doi:10.1074/jbc.M113.502971 (Hebrew University of Jerusalem, 2013):

Columns and labels:
Assay in all cases: [3H]TBZOH Binding Assay
Details in all cases: pH 7.5; 25 °C
[1] = biological target: Synaptic vesicular amine transporter [V132G] (Rat, UniProt Q01827, V132G)
[2] = biological target: Synaptic vesicular amine transporter [P314T] (Rat, UniProt Q01827, P314T)
[3] = biological target: Synaptic vesicular amine transporter [G308A] (Rat, UniProt Q01827, G308A)
[4] = biological target: Synaptic vesicular amine transporter [G308P] (Rat, UniProt Q01827, G308P)
[5] = biological target: Synaptic vesicular amine transporter [V132A] (Rat, UniProt Q01827, V132A)
[6] = biological target: Synaptic vesicular amine transporter [V41F] (Rat, UniProt Q01827, V41F)
[7] = biological target: Synaptic vesicular amine transporter [V41A] (Rat, UniProt Q01827, V41A)
[8] = biological target: Synaptic vesicular amine transporter [P314G] (Rat, UniProt Q01827, P314G)
[9] = biological target: Synaptic vesicular amine transporter [P314L] (Rat, UniProt Q01827, P314L)
[10] = biological target: Synaptic vesicular amine transporter (Rattus norvegicus, UniProt Q01827)
[11] = biological target: Synaptic vesicular amine transporter [V41I] (Rat, UniProt Q01827, V41I)

Question: Which Kd [1] does the source give for COc1cc2c(cc1OC)C1CC(=O)C(CC(C)C)CN1CC2 (configuration not stated) [3-Isobutyl-9,10-dimethoxy-1,3,4,6,7,11b-hexahydro-pyrido[2,1-a]isoquinolin-2-one] here?
Answer: Its Kd is > 100 nM.

Question: What about the IC50 [2] of the same compound?
Answer: Its IC50 is > 200 nM.

Question: What about the Kd [2] of the same compound?
Answer: Its Kd is > 100 nM.

Question: What about the IC50 [3] of the same compound?
Answer: The IC50 was > 200 nM.

Question: And the Kd [3]?
Answer: The Kd was > 100 nM.

Question: What about the IC50 [4] of the same compound?
Answer: The IC50 was 14.5 nM.

Question: And the Kd [4]?
Answer: The Kd was 2 nM.

Question: What about the Kd [5] of the same compound?
Answer: Its Kd is 63.4 nM.

Question: What about the Kd [6] of the same compound?
Answer: Its Kd is > 100 nM.

Question: What about the Kd [7] of the same compound?
Answer: Its Kd is 16 nM.

Question: What about the IC50 [8] of the same compound?
Answer: The IC50 was > 200 nM.

Question: And the Kd [8]?
Answer: The Kd was > 100 nM.

Question: And the IC50 [9]?
Answer: Its IC50 is > 200 nM.

Question: What about the Kd [9] of the same compound?
Answer: The Kd was > 100 nM.

Question: And the IC50 [10]?
Answer: The IC50 was 8.3 nM.

Question: And the Kd [10]?
Answer: The Kd was 5.2 nM.

Question: And the Kd [11]?
Answer: Its Kd is 4 nM.
